Literature values in patent EP1140135B1, “C[…]” (ratiopharm GmbH, priority 1998, dated 2003).

Details: in water, stated as known

## Cyclosporin A
  Löslichkeit in Wasser: sehr schlecht löslich
